In US20080009551A1, “Methods and Compositions for Identifying Modulators of G Protein-Coupled Receptors” (Arena Pharmaceuticals, Inc., priority 2003, published 2008):

Tested on: niacin receptor
Assay: Upregulation of GURC-modified niacin receptor (luciferase assay)
Assay type: cell-based
Details: FIG. 15A

**Q.** With O=C(O)c1cccnc1 [nicotinic acid] as the molecule, how does the “upregulation of the niacin receptor” value read?
**A.** dose-dependent upregulation
